PubChem BioAssay (Tox21)
The entries are a selection whose mix differs from that of the whole data set. Records with an inconclusive call do not appear. Where a call stands in place of a potency, no number is given. The source made the active and inactive calls. Calls follow the shape of the dose curve; as a rule, active = well fitted curve in the direction sought with a large enough effect in the repeat runs; inconclusive = weak or mixed curves; inactive = no such curve, though single readings can be large; an effect the other way counts as inactive or inconclusive.

Protein sequences, listed by entry. Tags and fused reporters are not part of them.
UniProt Q12809, whole entry: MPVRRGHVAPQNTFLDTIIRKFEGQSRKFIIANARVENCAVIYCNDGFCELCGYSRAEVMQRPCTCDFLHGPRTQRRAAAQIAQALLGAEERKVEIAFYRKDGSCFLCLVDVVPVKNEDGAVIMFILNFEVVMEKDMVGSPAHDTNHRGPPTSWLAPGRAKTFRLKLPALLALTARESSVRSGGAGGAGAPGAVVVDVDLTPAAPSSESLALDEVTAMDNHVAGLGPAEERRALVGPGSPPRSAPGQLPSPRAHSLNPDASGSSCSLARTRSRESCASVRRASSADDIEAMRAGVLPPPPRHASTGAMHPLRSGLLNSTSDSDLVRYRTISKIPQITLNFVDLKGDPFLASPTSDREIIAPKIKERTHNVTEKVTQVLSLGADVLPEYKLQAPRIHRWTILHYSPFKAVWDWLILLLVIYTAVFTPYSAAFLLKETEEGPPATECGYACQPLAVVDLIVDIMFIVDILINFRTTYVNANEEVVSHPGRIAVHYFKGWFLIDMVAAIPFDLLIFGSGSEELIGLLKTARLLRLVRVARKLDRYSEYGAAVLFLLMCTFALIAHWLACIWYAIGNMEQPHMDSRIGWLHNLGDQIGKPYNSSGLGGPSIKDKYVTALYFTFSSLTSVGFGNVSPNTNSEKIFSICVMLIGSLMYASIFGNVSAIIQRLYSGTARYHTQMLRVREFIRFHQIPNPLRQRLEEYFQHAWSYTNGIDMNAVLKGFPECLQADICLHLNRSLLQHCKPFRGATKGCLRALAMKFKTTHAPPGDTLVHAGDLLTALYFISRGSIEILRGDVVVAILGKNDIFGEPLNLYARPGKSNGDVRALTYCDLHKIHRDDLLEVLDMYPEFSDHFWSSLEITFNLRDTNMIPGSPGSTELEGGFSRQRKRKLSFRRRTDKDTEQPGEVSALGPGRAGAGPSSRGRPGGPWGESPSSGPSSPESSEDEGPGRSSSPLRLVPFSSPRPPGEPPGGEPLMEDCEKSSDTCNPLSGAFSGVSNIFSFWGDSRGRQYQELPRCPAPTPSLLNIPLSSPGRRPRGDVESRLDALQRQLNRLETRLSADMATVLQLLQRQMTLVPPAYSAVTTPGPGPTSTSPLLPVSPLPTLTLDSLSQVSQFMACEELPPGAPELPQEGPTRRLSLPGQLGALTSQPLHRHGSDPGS
UniProt P08684, whole entry: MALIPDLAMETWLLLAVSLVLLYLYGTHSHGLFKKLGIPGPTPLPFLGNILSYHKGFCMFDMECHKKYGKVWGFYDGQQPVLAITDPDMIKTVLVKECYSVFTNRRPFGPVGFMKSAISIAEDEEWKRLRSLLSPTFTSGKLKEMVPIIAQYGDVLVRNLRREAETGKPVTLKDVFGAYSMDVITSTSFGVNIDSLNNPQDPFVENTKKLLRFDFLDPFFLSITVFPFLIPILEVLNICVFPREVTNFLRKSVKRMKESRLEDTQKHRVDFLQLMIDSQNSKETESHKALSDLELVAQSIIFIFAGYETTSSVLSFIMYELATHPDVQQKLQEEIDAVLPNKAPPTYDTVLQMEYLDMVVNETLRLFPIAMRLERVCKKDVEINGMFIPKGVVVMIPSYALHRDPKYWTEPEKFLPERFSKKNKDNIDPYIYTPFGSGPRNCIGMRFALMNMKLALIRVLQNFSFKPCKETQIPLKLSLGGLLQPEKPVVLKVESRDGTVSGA

Tests used:
[1] = biological target: Voltage-gated inwardly rectifying potassium channel KCNH2 (Homo sapiens) (UniProt Q12809); assay: Human Ether-a-go-go-Related Gene (hERG) channel small molecule antagonists: fluorescence cell-based qHTS assay (AID 1671200)
Source text: National Center for Advancing Translational Sciences [NCATS]
U.S. Environmental Protection Agency [EPA]
National Institutes of Environmental Health Sciences [NIEHS]
National Toxicology Program [NTP]
U.S. Food and Drug Administration [FDA]
Mutations in the hERG channel cause Long QT (LQT) syndrome. LQT syndrome is a cardiac disorder which can cause ventricle arrhythmia and sudden death. Additionally, compounds which block the hERG channel can cause acquired LQT syndrome. Several FDA approved drugs have been removed from the market due to their hERG blocking activity. A cell-based hERG channel inhibition assay can be used to screen chemical compounds that inhibit hERG channel. This assay measures hERG channel activity using thallium ions as surrogate ions to measure potassium into the cells.
Tox21 Assay Protocol Summary:
hERG-U2OS cells were resuspended in culture medium and dispensed into 1536-well, black wall/clear-bottom plates at 1000cells/well/3uL using a Multidrop Combi dispenser (Thermo Fisher, Waltham, MA). After plates were incubated at 37 C overnight, 3 uL of Loading Buffer provided by FluxOR II Potassium Ion Channel Assay kit (Thermo, Carlsbad, CA) was added to each well. The assay plates were then incubated at room temperature in the dark for 1h. […] After the assay plates were incubated at room temperature for 10 min, 1 uL of Stimulus Buffer provided by FluxOR II Potassium Ion Channel Assay kit was added into each well and fluorescence intensity (480nm excitation/540nm emission) was continuously measured for 2 min at 1 second intervals using a Functional Drug Screening System (FDSS) 7000EX kinetic plate reader (Hamamatsu, Japan).

[2] = biological target: Cytochrome P450 3A4 (Homo sapiens) (UniProt P08684); assay: Cytochrome P450 Family 3 Subfamily A Member 4 (CYP3A4) small molecule antagonists: luciferase reporter qHTS assay (AID 1671201)
How it was run: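 Enzyme and proluciferin substrate are mixed with test chemicals for 10 min, then NADPH regeneration system drives turnover for 1 h at room temperature. A detection reagent halts the reaction; luminescence after 20 min gives relative activity.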
Also: nearly all actives have a fitted effect of over 50% in size.
Potency is read from the fitted curve at half-maximal effect.

CCC(=O)N(c1ccccc1)C1(COC)CCN(CCn2nnn(CC)c2=O)CC1
Potency [1]: inactive
Potency [2]: active: 493 nM

CN(CCCl)CCCl
Potency [1]: inactive
Potency [2]: inactive

O=[N+]([O-])C(Cl)(Cl)Cl
Potency [1]: inactive
Potency [2]: inactive

CCC(=O)N(c1ccccc1)C1(COC)CCN(CCc2cccs2)CC1
Potency [1]: active: 776 nM
Potency [2]: active: 796 nM
